From patent US20040024024A1, “Aromatic sulfone hydroxamates and their use as protease inhibitors” (priority 2001, published 2004)
Like-named read-outs stand apart in the source and are kept apart here.

Amino acid sequences for entries named in this document (tags omitted). Residues count along the entry.
UniProt P03956, 100-469 limits assumed: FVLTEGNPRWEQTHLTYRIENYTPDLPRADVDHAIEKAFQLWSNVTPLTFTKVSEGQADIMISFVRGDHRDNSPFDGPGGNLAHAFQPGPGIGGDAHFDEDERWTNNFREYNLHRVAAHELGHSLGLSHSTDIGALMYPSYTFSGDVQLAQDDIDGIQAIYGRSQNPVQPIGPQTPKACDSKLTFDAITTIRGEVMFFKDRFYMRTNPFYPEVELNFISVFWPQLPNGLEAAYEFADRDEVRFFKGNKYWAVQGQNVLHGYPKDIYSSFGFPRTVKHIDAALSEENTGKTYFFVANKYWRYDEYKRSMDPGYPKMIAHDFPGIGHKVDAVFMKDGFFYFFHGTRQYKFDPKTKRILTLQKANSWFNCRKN
UniProt P08253, 110-660 limits assumed: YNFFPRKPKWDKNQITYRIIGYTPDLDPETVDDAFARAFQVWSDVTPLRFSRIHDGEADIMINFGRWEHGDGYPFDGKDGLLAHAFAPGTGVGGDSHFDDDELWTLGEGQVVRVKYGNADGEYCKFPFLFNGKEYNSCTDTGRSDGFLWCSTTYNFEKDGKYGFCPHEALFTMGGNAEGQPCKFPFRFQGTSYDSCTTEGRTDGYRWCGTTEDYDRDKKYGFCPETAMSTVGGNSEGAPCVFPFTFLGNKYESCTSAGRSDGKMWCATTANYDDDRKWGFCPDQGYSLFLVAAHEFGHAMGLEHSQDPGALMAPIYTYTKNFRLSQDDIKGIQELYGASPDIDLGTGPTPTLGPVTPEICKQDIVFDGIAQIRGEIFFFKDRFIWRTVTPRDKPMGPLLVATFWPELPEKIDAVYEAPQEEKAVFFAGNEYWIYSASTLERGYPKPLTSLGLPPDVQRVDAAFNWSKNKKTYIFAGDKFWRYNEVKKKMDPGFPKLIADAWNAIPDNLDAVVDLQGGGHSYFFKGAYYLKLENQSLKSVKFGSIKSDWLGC
UniProt P14780, 107-707 limits assumed: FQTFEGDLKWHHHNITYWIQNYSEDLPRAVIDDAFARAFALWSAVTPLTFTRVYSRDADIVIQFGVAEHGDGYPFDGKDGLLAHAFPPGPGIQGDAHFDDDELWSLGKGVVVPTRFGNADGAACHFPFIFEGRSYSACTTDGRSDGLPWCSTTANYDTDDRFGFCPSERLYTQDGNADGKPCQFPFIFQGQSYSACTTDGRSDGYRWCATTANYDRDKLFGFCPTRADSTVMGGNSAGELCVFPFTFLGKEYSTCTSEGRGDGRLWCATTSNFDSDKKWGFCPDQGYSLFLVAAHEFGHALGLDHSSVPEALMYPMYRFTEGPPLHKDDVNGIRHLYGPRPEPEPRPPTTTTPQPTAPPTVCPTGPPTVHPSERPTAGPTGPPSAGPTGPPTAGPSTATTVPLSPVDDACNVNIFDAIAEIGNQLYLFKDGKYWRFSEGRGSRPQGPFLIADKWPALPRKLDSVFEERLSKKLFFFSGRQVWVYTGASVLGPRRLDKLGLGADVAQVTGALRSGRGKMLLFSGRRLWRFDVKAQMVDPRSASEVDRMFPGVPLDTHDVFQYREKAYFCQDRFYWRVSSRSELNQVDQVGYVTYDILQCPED

Tests used:
Human recombinant MMP-1 [1] = target: T1, Human recombinant MMP-1 (Homo sapiens, UniProt P03956); test: In vitro MMP inhibition, IC50 determination (fluorogenic substrate I); conditions: read-out: MMP-1 IC50; substrate (I) 4 μM, room temperature; values not in parenthesis; tested form: HCl
Human recombinant MMP-13 [2] = target: T2, Human recombinant MMP-13 (Homo sapiens, UniProt P45452); test: as above; conditions: read-out: MMP-13 IC50
Human recombinant MMP-14 [3] = target: T3, Human recombinant MMP-14 (Homo sapiens, UniProt P50281); test: as above; conditions: read-out: MMP-14 IC50; substrate (I) 4 μM, room temperature; values not in parenthesis; tested form: HCl
Human recombinant MMP-2 [4] = target: T4, Human recombinant MMP-2 (Homo sapiens, UniProt P08253); test: as above; conditions: read-out: MMP-2 IC50
Human recombinant MMP-9 [5] = target: T5, Human recombinant MMP-9 (Homo sapiens, UniProt P14780); test: as above; conditions: read-out: MMP-9 IC50; substrate (I) 4 μM, room temperature; values not in parenthesis; tested form: HCl
Human recombinant MMP-1 [6] = target: T1, Human recombinant MMP-1; test: In vitro MMP inhibition, Ki determination (fluorogenic substrate II); conditions: read-out: MMP-1 (Ki)
Human recombinant MMP-13 [7] = target: T2, Human recombinant MMP-13; test: as above; conditions: read-out: MMP-13 (Ki)
Human recombinant MMP-14 [8] = target: T3, Human recombinant MMP-14; test: as above; conditions: read-out: MMP-14 (Ki)
Human recombinant MMP-9 [9] = target: T5, Human recombinant MMP-9; test: as above; conditions: read-out: MMP-9 (Ki)
Human recombinant MMP-2 [10] = target: T4, Human recombinant MMP-2; test: as above; conditions: read-out: MMP-2 (Ki); value in parenthesis
[11] = substrate (I) 4 μM, room temperature, values not in parenthesis, tested form: HCl
[12] = substrate (II) 4 μM, 1 hr room temperature, apparent Ki, values in parenthesis, tested form: HCl

Row | SMILES | IC50 (Human recombinant MMP-1 [1]) [nM] | IC50 (Human recombinant MMP-13 [2]; [11]) [nM] | IC50 (Human recombinant MMP-14 [3]) [nM] | IC50 (Human recombinant MMP-2 [4]; [11]) [nM] | IC50 (Human recombinant MMP-9 [5]) [nM] | Ki (Human recombinant MMP-1 [6]; [12]) [nM] | Ki (Human recombinant MMP-13 [7]; [12]) [nM] | Ki (Human recombinant MMP-14 [8]; [12]) [nM] | Ki (Human recombinant MMP-9 [9]; [12]) [nM] | IC50 (Human recombinant MMP-13 [2]; value outside parenthesis) [nM] | IC50 (Human recombinant MMP-2 [4]; value outside parenthesis) [nM] | Ki (Human recombinant MMP-1 [6]; value in parenthesis) [nM] | Ki (Human recombinant MMP-13 [7]; value in parenthesis) [nM] | Ki (Human recombinant MMP-14 [8]; value in parenthesis) [nM] | Ki (Human recombinant MMP-2 [10]) [nM] | Ki (Human recombinant MMP-9 [9]; value in parenthesis) [nM]
1 | O=C(NO)C1(S(=O)(=O)c2ccc(OCCCc3cccc(-c4ccccc4)c3)cc2)CCN(C2CC2)CC1 | > 10000 | 0.9 | > 10000 | 158 | 1030 | > 10000 | 6.55 | 4450 | 370 |  |  |  |  |  |  | 
2 | Cc1ccc(-c2cccc(CCCOc3ccc(S(=O)(=O)C4(C(=O)NO)CCOCC4)cc3)c2)cc1 |  |  |  |  |  |  |  |  |  | 12.2 | 2120 | > 10000 | 11.5 | > 10000 | 4090 | 3480
